Assay results taken from ChEMBL document CHEMBL5442219.

Sequences of proteins named here, by UniProt entry; tags and fusion partners are left off. A change or cut given only in a name is not applied to a line headed by its entry.
UniProt P35368, whole entry, looked up: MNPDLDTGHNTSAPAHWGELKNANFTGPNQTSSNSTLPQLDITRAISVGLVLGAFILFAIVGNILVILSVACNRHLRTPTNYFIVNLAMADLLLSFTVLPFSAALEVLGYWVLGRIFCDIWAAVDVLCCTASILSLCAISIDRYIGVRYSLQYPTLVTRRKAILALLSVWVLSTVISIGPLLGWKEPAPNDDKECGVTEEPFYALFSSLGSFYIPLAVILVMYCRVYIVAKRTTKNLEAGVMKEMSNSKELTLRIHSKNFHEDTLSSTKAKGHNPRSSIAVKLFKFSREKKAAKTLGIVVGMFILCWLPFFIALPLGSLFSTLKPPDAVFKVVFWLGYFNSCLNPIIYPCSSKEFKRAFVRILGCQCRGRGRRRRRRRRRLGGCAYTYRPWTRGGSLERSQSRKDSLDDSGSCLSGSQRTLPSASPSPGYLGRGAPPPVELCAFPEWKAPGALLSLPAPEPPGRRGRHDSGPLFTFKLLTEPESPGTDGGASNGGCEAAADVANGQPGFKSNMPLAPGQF
UniProt P08913, whole entry, looked up: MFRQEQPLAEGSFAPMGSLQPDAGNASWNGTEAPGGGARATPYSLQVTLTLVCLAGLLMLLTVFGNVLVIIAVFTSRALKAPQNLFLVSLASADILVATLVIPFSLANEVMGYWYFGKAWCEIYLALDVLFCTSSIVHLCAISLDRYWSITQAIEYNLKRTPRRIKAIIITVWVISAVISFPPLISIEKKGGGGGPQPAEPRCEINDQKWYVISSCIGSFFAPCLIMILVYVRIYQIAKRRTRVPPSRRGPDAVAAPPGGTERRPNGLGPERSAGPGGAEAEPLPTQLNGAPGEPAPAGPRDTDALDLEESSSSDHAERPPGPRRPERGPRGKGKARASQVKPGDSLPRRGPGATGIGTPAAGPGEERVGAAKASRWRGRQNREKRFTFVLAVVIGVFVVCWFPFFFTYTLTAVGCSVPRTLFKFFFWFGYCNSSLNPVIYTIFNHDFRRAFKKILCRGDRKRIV
UniProt P11229: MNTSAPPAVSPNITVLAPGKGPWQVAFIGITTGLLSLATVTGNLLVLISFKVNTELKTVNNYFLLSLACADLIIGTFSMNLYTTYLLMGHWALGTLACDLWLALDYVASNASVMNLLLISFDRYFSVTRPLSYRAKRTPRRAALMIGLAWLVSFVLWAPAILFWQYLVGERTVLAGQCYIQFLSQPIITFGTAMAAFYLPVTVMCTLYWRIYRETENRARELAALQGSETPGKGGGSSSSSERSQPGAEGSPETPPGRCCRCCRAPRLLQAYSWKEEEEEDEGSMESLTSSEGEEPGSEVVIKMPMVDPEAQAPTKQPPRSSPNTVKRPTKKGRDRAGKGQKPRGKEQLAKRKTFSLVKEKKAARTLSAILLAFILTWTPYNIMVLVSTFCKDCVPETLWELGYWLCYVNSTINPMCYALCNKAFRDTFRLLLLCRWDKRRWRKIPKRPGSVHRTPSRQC
UniProt P21728, whole entry, looked up: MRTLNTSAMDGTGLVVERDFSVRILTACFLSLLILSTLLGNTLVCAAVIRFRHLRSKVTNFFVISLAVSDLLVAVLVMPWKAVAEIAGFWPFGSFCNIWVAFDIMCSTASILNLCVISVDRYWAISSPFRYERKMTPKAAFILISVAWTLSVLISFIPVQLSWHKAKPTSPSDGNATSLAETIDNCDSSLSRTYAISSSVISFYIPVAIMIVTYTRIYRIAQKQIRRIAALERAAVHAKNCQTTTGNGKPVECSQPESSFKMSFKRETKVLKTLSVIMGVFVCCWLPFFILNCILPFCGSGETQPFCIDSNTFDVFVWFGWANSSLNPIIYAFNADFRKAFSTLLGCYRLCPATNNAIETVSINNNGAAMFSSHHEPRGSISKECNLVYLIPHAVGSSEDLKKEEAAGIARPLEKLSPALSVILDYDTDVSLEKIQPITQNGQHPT
UniProt P14416, whole entry, looked up: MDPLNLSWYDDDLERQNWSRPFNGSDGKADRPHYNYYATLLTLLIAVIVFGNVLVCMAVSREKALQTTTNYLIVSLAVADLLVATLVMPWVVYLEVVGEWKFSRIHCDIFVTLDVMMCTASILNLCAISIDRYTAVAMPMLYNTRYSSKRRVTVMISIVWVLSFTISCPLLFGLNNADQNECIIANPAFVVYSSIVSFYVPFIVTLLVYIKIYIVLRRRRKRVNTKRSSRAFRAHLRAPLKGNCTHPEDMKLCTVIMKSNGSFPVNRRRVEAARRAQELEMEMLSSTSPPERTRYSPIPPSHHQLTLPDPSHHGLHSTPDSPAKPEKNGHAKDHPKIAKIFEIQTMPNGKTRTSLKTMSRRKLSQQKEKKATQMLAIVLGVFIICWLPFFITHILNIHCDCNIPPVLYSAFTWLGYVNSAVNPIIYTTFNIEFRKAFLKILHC
UniProt P21917, whole entry, looked up: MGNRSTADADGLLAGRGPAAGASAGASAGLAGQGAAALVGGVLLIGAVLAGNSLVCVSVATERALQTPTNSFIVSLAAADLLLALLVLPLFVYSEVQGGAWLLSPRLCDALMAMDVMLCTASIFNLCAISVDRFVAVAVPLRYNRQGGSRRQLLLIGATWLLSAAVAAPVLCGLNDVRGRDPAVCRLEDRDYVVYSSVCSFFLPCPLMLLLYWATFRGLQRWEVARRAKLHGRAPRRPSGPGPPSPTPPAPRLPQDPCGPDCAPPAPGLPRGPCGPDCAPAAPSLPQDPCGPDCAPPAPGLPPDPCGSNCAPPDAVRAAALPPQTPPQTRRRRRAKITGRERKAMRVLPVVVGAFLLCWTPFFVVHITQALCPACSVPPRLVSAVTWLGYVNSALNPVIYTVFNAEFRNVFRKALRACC
UniProt Q9H3N8: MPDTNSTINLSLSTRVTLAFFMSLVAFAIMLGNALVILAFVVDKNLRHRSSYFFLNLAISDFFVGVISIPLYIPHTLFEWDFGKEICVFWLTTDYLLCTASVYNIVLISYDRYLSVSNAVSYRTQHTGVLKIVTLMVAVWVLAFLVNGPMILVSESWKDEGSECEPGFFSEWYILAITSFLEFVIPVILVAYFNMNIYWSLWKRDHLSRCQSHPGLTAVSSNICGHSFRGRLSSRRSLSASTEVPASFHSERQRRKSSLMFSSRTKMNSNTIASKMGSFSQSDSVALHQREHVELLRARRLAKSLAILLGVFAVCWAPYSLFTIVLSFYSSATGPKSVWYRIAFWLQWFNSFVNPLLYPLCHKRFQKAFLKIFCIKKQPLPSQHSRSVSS
UniProt P28222, whole entry, looked up: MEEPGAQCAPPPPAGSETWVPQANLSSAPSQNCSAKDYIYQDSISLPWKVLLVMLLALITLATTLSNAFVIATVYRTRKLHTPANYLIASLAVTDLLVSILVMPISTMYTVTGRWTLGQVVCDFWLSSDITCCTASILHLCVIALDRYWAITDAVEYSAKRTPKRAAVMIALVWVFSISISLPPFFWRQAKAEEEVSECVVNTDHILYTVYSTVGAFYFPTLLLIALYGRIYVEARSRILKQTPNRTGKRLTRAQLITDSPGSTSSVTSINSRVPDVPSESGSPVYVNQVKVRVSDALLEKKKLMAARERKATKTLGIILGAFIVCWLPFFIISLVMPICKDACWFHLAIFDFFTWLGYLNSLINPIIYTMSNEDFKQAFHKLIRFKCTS
UniProt P28221: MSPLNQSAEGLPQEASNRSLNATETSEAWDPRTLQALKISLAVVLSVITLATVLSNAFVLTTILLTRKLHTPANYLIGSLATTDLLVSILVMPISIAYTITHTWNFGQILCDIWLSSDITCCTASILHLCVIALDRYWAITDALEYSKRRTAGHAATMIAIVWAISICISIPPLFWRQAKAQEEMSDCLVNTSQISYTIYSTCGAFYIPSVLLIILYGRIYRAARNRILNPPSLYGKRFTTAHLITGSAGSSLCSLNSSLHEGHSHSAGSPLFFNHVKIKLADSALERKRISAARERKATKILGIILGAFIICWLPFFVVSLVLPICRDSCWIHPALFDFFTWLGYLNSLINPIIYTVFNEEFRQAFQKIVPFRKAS
UniProt P28566: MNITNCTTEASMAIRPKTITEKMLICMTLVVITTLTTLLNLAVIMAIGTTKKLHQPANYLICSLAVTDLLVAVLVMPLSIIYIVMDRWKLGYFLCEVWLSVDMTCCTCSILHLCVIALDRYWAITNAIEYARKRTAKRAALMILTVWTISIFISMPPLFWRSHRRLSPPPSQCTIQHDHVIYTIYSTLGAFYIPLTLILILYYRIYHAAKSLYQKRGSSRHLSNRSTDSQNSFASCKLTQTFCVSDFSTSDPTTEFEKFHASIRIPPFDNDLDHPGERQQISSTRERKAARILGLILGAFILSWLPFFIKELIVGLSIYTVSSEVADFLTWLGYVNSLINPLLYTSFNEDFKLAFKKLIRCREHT
UniProt P46098, whole entry, looked up: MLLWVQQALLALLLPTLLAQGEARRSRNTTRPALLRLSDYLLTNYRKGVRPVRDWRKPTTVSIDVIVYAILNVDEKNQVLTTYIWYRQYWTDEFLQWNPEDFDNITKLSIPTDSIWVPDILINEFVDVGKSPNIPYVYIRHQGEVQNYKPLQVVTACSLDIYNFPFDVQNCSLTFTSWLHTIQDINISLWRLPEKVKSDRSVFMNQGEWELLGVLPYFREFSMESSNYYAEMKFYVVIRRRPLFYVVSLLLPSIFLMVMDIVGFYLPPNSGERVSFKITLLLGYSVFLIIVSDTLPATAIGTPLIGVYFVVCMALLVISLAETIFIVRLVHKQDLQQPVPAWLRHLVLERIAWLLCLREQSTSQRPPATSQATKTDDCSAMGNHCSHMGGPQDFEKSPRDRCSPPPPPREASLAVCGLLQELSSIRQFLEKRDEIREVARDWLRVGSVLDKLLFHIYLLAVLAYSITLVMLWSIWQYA
UniProt P41145: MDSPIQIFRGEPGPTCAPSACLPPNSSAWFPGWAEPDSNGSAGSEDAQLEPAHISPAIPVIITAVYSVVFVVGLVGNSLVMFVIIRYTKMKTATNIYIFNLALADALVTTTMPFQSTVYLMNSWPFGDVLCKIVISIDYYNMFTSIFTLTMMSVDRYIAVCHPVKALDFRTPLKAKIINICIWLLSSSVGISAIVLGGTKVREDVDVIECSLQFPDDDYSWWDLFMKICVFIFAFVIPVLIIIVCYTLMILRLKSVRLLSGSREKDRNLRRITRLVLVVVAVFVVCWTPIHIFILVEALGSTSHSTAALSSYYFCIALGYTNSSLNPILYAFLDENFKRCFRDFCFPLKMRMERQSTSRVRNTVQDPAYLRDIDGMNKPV
UniProt Q01959, whole entry, looked up: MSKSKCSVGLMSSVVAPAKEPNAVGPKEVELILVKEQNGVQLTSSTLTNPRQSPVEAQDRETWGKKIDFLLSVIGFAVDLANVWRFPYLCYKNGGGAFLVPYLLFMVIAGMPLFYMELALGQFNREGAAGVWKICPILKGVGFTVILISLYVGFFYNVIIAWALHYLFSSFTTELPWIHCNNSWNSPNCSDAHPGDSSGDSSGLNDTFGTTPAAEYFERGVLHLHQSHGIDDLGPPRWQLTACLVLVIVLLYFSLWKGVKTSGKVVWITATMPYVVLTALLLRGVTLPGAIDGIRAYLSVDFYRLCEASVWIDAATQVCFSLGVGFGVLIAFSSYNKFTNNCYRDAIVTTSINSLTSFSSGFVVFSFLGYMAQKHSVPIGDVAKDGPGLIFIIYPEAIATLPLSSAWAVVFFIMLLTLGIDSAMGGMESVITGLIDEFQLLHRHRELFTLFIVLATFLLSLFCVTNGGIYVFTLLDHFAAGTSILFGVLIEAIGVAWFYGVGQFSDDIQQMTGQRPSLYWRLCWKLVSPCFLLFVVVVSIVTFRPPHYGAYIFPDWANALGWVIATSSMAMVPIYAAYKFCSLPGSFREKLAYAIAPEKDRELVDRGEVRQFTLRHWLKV
UniProt P31645, whole entry, looked up: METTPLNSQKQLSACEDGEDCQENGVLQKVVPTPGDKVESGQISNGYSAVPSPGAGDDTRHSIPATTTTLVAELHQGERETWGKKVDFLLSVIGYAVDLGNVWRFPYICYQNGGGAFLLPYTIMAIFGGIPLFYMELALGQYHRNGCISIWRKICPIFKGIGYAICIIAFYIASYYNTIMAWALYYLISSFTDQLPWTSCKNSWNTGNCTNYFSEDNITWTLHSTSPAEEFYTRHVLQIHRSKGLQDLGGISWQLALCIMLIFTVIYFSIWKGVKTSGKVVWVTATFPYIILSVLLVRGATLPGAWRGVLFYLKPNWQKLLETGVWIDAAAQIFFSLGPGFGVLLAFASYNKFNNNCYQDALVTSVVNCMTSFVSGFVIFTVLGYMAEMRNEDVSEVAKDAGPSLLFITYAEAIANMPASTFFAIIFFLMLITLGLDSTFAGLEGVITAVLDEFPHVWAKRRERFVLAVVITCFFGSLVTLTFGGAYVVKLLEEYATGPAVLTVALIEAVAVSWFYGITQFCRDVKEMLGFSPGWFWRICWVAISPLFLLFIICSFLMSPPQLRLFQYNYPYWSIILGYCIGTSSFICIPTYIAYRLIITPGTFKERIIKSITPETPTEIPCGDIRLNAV
UniProt P30536, whole entry, looked up: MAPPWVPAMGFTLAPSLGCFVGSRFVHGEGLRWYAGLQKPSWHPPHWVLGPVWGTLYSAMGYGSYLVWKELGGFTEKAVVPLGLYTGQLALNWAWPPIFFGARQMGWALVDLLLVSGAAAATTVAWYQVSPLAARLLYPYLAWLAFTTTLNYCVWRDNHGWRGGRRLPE

What was measured:
[1] = biological target: Alpha-1A adrenergic receptor (Homo sapiens) (UniProt P35348); conditions: Compound concentration 10 µM, Radioligand [3H]-Prazosin
[2] = biological target: Alpha-1B adrenergic receptor (Homo sapiens) (UniProt P35368); conditions: Compound concentration 10 µM, Radioligand [3H]-Prazosin
[3] = biological target: Alpha-2A adrenergic receptor (Homo sapiens) (UniProt P08913); conditions: Compound concentration 10 µM, Radioligand [3H]-Rauwolscine
[4] = biological target: Alpha-2B adrenergic receptor (Homo sapiens) (UniProt P18089); conditions: Compound concentration 10 µM, Radioligand [3H]-Rauwolscine
[5] = biological target: Alpha-2C adrenergic receptor (Homo sapiens) (UniProt P18825); conditions: Compound concentration 10 µM, Radioligand [3H]-Rauwolscine
[6] = biological target: Beta-1 adrenergic receptor (Homo sapiens) (UniProt P08588); conditions: Compound concentration 10 µM, Radioligand [125I]-Pindolol
[7] = biological target: Beta-2 adrenergic receptor (Homo sapiens) (UniProt P07550); conditions: Compound concentration 10 µM, Radioligand [3H]-CGP12177
[8] = biological target: Muscarinic acetylcholine receptor M1 (Homo sapiens) (UniProt P11229); conditions: Compound concentration 10 µM, Radioligand [3H]-QNB
[9] = biological target: Muscarinic acetylcholine receptor M3 (Homo sapiens) (UniProt P20309); conditions: Compound concentration 10 µM, Radioligand [3H]-QNB
[10] = biological target: Muscarinic acetylcholine receptor M5 (Homo sapiens) (UniProt P08912); conditions: Compound concentration 10 µM, Radioligand [3H]-QNB
[11] = biological target: D(1A) dopamine receptor (Homo sapiens) (UniProt P21728); conditions: Compound concentration 10 µM, Radioligand [3H]-SCH23390
[12] = biological target: D(2) dopamine receptor (Homo sapiens) (UniProt P14416); conditions: Compound concentration 10 µM, Radioligand [3H]-N-Methylspiperone
[13] = biological target: D(3) dopamine receptor (Homo sapiens) (UniProt P35462); conditions: Compound concentration 10 µM, Radioligand [3H]-N-Methylspiperone
[14] = biological target: D(4) dopamine receptor (Homo sapiens) (UniProt P21917); conditions: Compound concentration 10 µM, Radioligand [3H]-N-Methylspiperone
[15] = biological target: D(1B) dopamine receptor (Homo sapiens) (UniProt P21918); conditions: Compound concentration 10 µM, Radioligand [3H]-SCH23390
[16] = biological target: Histamine H1 receptor (Homo sapiens) (UniProt P35367); conditions: Compound concentration 10 µM, Radioligand [3H]-Pyrilamine
[17] = biological target: Histamine H4 receptor (Homo sapiens) (UniProt Q9H3N8); conditions: Compound concentration 10 µM, Radioligand [3H]-Histamine
[18] = biological target: 5-hydroxytryptamine receptor 1A (Homo sapiens) (UniProt P08908); conditions: Compound concentration 10 µM, Radioligand [3H]-WAY100635
[19] = biological target: 5-hydroxytryptamine receptor 1B (Homo sapiens) (UniProt P28222); conditions: Compound concentration 10 µM, Radioligand [3H]-GR125743
[20] = biological target: 5-hydroxytryptamine receptor 1D (Homo sapiens) (UniProt P28221); conditions: Compound concentration 10 µM, Radioligand [3H]-GR125743
[21] = biological target: 5-hydroxytryptamine receptor 1E (Homo sapiens) (UniProt P28566); conditions: Compound concentration 10 µM, Radioligand [3H]-5-HT
[22] = biological target: 5-hydroxytryptamine receptor 2A (Homo sapiens) (UniProt P28223); conditions: Compound concentration 10 µM, Radioligand [3H]-Ketanserin
[23] = biological target: 5-hydroxytryptamine receptor 2B (Homo sapiens) (UniProt P41595); conditions: Compound concentration 10 µM, Radioligand [3H]-LSD
[24] = biological target: 5-hydroxytryptamine receptor 2C (Homo sapiens) (UniProt P28335); conditions: Compound concentration 10 µM, Radioligand [3H]-Mesulergine
[25] = biological target: 5-hydroxytryptamine receptor 3A (Homo sapiens) (UniProt P46098); conditions: Compound concentration 10 µM, Radioligand [3H]-GR65630
[26] = biological target: 5-hydroxytryptamine receptor 5A (Homo sapiens) (UniProt P47898); conditions: Compound concentration 10 µM, Radioligand [3H]-LSD
[27] = biological target: 5-hydroxytryptamine receptor 7 (Homo sapiens) (UniProt P34969); conditions: Compound concentration 10 µM, Radioligand [3H]-LSD
[28] = biological target: Delta-type opioid receptor (Homo sapiens) (UniProt P41143); conditions: Compound concentration 10 µM, Radioligand [3H]-DADLE
[29] = biological target: Kappa-type opioid receptor (Homo sapiens) (UniProt P41145); conditions: Compound concentration 10 µM, Radioligand [3H]-U69593
[30] = biological target: Mu-type opioid receptor (Homo sapiens) (UniProt P35372); conditions: Compound concentration 10 µM, Radioligand [3H]-DAMGO
[31] = biological target: Sodium-dependent noradrenaline transporter (Homo sapiens) (UniProt P23975); conditions: Compound concentration 10 µM, Radioligand [3H]-Nisoxetine
[32] = biological target: Sodium-dependent dopamine transporter (Homo sapiens) (UniProt Q01959); conditions: Compound concentration 10 µM, Radioligand [3H]-WIN35428
[33] = biological target: Sodium-dependent serotonin transporter (Homo sapiens) (UniProt P31645); conditions: Compound concentration 10 µM, Radioligand [3H]-Citalopram
[34] = biological target: Sigma intracellular receptor 2 (Homo sapiens) (UniProt Q5BJF2); conditions: Compound concentration 10 µM, Radioligand [3H]-DTG
[35] = biological target: Translocator protein (Homo sapiens) (UniProt P30536); conditions: Compound concentration 10 µM, Radioligand [3H]-PK11195

Work on `O=C1NCN(c2ccccc2)C12CCN(CC1COc3ccccc3O1)CC2` (stereo not given) yielded an inhibition [1] of 92.7%, an inhibition [2] of 91% and an inhibition [3] of 103%. For the same molecule, the inhibition [4] was 97.7%, the inhibition [5] was 103% and the inhibition [6] was 3.03%. The inhibition [7] was 18.9%, the inhibition [8] was 9.97% and the inhibition [9] was -2.5%. For the same molecule, the inhibition [10] was 0.77%, the inhibition [11] was 0.86% and the inhibition [12] was 100%. For the same molecule, the inhibition [13] was 80.3%, the inhibition [14] was 65.8% and the inhibition [15] was -3.83%. For the same molecule, the inhibition [16] was 36%, the inhibition [17] was 6.79% and the inhibition [18] was 101%. For the same molecule, the inhibition [19] was 14.1%, the inhibition [20] was 43.4% and the inhibition [21] was 47.6%. It also gave an inhibition [22] of 87%, an inhibition [23] of 89.8% and an inhibition [24] of 11.5%. The inhibition [25] was 3.22%, the inhibition [26] was 57.6% and the inhibition [27] was 98.5%. For the same molecule, the inhibition [28] was 21.9%, the inhibition [29] was 84.5% and the inhibition [30] was 98.6%. The inhibition [31] was 52.5%, the inhibition [32] was 49.4% and the inhibition [33] was 12.5%. It also gave an inhibition [34] of 90.4% and an inhibition [35] of 10.4%.
